Ab-95 light chain CDR variants: yeast mating affinities

Values reported by Engelhart et al. 2022, doi:10.1038/s41597-022-01779-4 (FLAb copy).

Binding partner: SARS-CoV-2 spike HR2 peptide, sequence PDVDLGDISGINAS.

The variants keep the heavy chain, the linker and the frameworks of Ab-95 (scFv order VH, a (GGGGS)3 linker, VL).
VH: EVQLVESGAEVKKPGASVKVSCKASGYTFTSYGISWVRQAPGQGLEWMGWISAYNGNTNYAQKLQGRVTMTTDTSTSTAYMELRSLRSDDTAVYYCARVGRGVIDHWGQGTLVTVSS
VL: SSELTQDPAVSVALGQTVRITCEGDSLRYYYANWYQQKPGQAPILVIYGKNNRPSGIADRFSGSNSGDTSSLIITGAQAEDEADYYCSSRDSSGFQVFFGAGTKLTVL

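The parent was found by panning a naive human phage display library on the peptide. AAYL52 was designed without a model: most single CDR substitutions and a random sample of double and triple ones. The scFvs were displayed on barcoded MATa yeast, the peptide on MATalpha yeast. Pairs that bind mate more often; barcode pairs of the diploids are counted by sequencing. Each replicate has its own calibration line, from reference interactions of the BCL2 family. The assay was run in three technical replicates.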

Substitutions are numbered in sequence along the VL above, starting at 1 (not Kabat).
The read-out is the apparent dissociation constant on a log10 scale (nM): the lower, the stronger.
Replicates are averaged; those with no signal do not enter the mean.
A pair that was not seen in any replicate is written "not detected"; this usually means weak binding, but a binder can also be missed.
Background: pairings of library AAYL52 with three empty control strains gave a value in 28% of cases (median 3.91, 5th percentile 2.90). Values in that range, when seen in few replicates, are hard to tell from nonspecific mating.
In this assay the parent's reference entry averaged 2.31; its copy inside this library read 2.25.

| # | changes | log10 Kd (nM), mean | replicates with signal |
|---|---|---|---|
| 1 | R53H S55Q R90S | 3.88 | 2 of 3 |
| 2 | D25V N52L S93C | 5.29 | 1 of 3 |
| 3 | G24K R90A Q96E | 4.79 | 3 of 3 |
| 4 | Y29I Y30K V97K | 4.31 | 1 of 3 |
| 5 | K50I N51R S89H | 4.05 | 2 of 3 |
| 6 | S88W S89N S93R | 3.89 | 1 of 3 |
| 7 | D25K N33C N52W | 4.53 | 2 of 3 |
| 8 | S92I S93H F95P | 4.47 | 2 of 3 |
| 9 | S26W A32M R90C | 3.72 | 2 of 3 |
| 10 | D25G Y29T S93C | 3.13 | 3 of 3 |
| 11 | N51L S93L Q96C | 4.03 | 3 of 3 |
| 12 | D25E S26C N33A | 4.21 | 2 of 3 |
| 13 | G24K A32G S92M | 3.21 | 2 of 3 |
| 14 | Y29N G49F S93E | not detected | 0 of 3 |
| 15 | S26N S89H G94K | 3.00 | 2 of 3 |
| 16 | G24D R53F V97N | 3.19 | 1 of 3 |
| 17 | Y30Q Y31T S93C | 3.19 | 3 of 3 |
| 18 | Y30L N51F D91H | 3.02 | 1 of 3 |
| 19 | A32K S89M D91L | 3.73 | 3 of 3 |
| 20 | G24M P54T F98R | 3.66 | 2 of 3 |
| 21 | G24C R53W S55H | 3.49 | 1 of 3 |
| 22 | A32F N33V F95C | 4.02 | 1 of 3 |
| 23 | R53M D91G Q96G | 3.75 | 3 of 3 |
| 24 | R28K R90A F95L | 2.34 | 3 of 3 |
| 25 | K50L S55F S92E | 2.51 | 3 of 3 |
| 26 | N51D P54D D91T | 4.31 | 1 of 3 |
| 27 | Y31I G49Y S89T | 3.39 | 1 of 3 |

The remaining entries, values ahead:

| # | log10 Kd (nM), mean | replicates with signal | changes |
|---|---|---|---|
| 28 | 3.77 | 1 of 3 | K50Y S89P F98V |
| 29 | 3.87 | 2 of 3 | K50N R90C S92L |
| 30 | 4.24 | 2 of 3 | P54W F95W |
| 31 | 4.58 | 1 of 3 | S26Q G49P R90W |
| 32 | 1.34 | 3 of 3 | E23F Y30T K50T |
| 33 | 3.14 | 1 of 3 | Y31W N52S S88Q |
| 34 | 2.60 | 3 of 3 | D91A G94M F98L |
| 35 | 1.82 | 3 of 3 | D25F S55D S93L |
| 36 | 3.25 | 1 of 3 | N51K R53T |
| 37 | 1.26 | 3 of 3 | Y30L S89M Q96N |
| 38 | 4.34 | 2 of 3 | K50C N51K G94Y |
| 39 | 1.72 | 3 of 3 | R28M A32P S92A |
| 40 | not detected | 0 of 3 | S26H R28P S88Q |
| 41 | 4.83 | 1 of 3 | L27Y A32H S88L |
| 42 | 2.73 | 3 of 3 | D25Y S88H G94L |
| 43 | 3.41 | 3 of 3 | Y29K S92I F95N |
| 44 | 4.59 | 3 of 3 | G24P R53D F98I |
| 45 | 3.64 | 1 of 3 | A32H S88W |
| 46 | 3.71 | 1 of 3 | N51A N52V R90S |
| 47 | 3.19 | 1 of 3 | S26V N52S P54L |
| 48 | 3.82 | 2 of 3 | R28C P54L F98T |
| 49 | 2.89 | 1 of 3 | R28E P54G V97Q |
| 50 | not detected | 0 of 3 | D91W F95V F98D |
| 51 | 3.62 | 3 of 3 | L27E Y31C R90V |
| 52 | 2.91 | 1 of 3 | E23F S89T F95E |
| 53 | 2.50 | 3 of 3 | Y30G A32R S89P |
| 54 | not detected | 0 of 3 | A32G K50R S92L |

Repeated from above, the 4 best binders with a signal in all replicates:

| changes | log10 Kd (nM), mean | replicates with signal |
|---|---|---|
| Y30L S89M Q96N | 1.26 | 3 of 3 |
| E23F Y30T K50T | 1.34 | 3 of 3 |
| R28M A32P S92A | 1.72 | 3 of 3 |
| D25F S55D S93L | 1.82 | 3 of 3 |